According to US20060183796A1, “Method for the medicinal prophylaxis of cholinesterase inhibitor intoxication, and active substances and medicaments suitable therefor” (published 2006):

How the values were obtained:
[1] = free base or acid addition salt; cited from earlier work
[2] = in vivo; cited from earlier work
[3] = system: enzyme cholinesterase in the blood; experiment: Preliminary test: blood cholinesterase inhibition after oral capsule in piglets; conditions: piglets 12 kg, 6 mg orally as capsule, two hours after administration
[4] = approved medicament for Alzheimer's disease; cited from earlier work

SMILES	ability to penetrate the skin [1]	absorption from the gastrointestinal tract [2]	crossing of the blood-brain barrier [2]	inhibition of the enzyme cholinesterase in the blood [3]	side effects [4]
CN1[C@@H]2C[C@@H](OC(=O)[C@H](CO)c3ccccc3)C[C@H]1[C@@H]1O[C@@H]12	able to penetrate the skin	–	–	–	–
CCN(C)C(=O)Oc1cccc([C@H](C)N(C)C)c1	able to penetrate the skin	absorbed well	easily crosses the blood-brain barrier	20-40%	no serious side effects are known
